Literature values, collected in article PMC12559310, “Tumor-targeted top1 inhibitor delivery with optimized parp inhibition in advanced solid tumors: a phase i trial of gapped scheduling” (Nature Communications, 2025).

System: NSCLC
Conditions: CRLX101 plus BSC group (12 subjects); cited from earlier work

## Poly-CD-PEG-Camptothecin [CRLX101]
  TEAE asthenia: 12%
